{"source": "patent US10405750B2", "about": "“Nonradiative voltage-sensitive dye for imaging neuronal action potential” (Washington University, priority 2014, dated 2019)", "key": {"HEK 293 cells": {"system": "HEK 293 cells", "test": "OR-PAM photoacoustic imaging of HEK 293 cells stained with DPA alone under different membrane resting potentials", "details": "~68 mV membrane resting potential change induced by extracellular K+ concentration change", "source_text": "HEK 293 cells stained with the hybrid DiO/DPA dye were imaged under different resting potentials. HEK 293 cell membrane resting potential was changed by changing the environmental potassium ion concentration. DPA dye alone may provide voltage-sensitive photoacoustic contrast. HEK 293 cells stained with DPA alone were imaged under different resting potentials. […] Additional dyes may be screened for an optimal optical excitation wavelength in the deep-penetration optical window (red or NIR), the results may be quantified using the voltage clamp technique as the gold standard, and optical pulse energy may be optimized for the detection of voltage-sensitive photoacoustic imaging probes. The selected dyes and optimized parameters may be applied in the in vivo mouse brain imaging experiment.\nWe conducted preliminary experiments again with HEK 293 cell culture preparation and a transmission mode optical resolution photoacoustic microscope, except that HEK 293 cells were stained only with DPA [1]. Similarly, we first imaged stained cells in DPBS using OR-PAM to acquire a baseline image. Then we changed the cell membrane resting potential by varying the cell's external environmental potassium (K^+) concentration.\nThe error bar represents one standard deviation. […]"}, "mouse brains": {"system": "mouse brains", "test": "In vivo M-mode photoacoustic imaging of mouse brain through open skull window with pharmacological manipulations", "details": "mouse cortex, shortly after topically applying DPA dye; baseline without dye shows no activity"}}, "note": "Some compounds may have been tested in ways that are not shown here.", "data": [{"smiles": "O=[N+]([O-])c1cc([N+](=O)[O-])c(Nc2c([N+](=O)[O-])cc([N+](=O)[O-])cc2[N+](=O)[O-])c([N+](=O)[O-])c1", "values": [{"measurement": "PA signal change", "setting": "HEK 293 cells", "result": 200, "unit": "%"}, {"measurement": "PA signal (M-mode) after dye application", "setting": "mouse brains", "result": "intermittent low-amplitude PA signal consistent with isolated spontaneous neural activity"}]}]}
